In the library only some 1.3% were active in any assay of this set; here they are far more common.
SR-BI uptake up – SR-BI HDL lipid transfer activation; CHO ldlA[mSR-BI] cells, DiI-HDL uptake fluorescence, 3 h; 100 = double the neutral-control signal; 0.096% of 320,000 active; activation, % at 12.5 µM;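 active = mean replicate activation of at least 60% and every replicate at or above 60%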;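 also: 0% = median plate neutral-control signal and 100% = twice that signal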
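Assay system: LDL receptor-deficient CHO ldlA cells overexpressing murine SR-BI / Medium: BSA-supplemented, HEPES-buffered Ham's F12, pH 7.4 / Probe or stimulus: DiI-labelled HDL at 10 µg/mL final / Timing: compound with DiI-HDL co-incubation, 3 h at 37 °C / Technique: bottom-read cell fluorescence after medium removal, ex 550/em 595 nm / Measure: HDL uptake via cellular fluorescence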
INS-1E GSIS act – primary screen for activators of insulin secretion dependent on glucose, INS-1E cells, GLuc reporter luminescence; INS-1E GLuc reporter insulin secretion, 2-3 h; activation, % at 16.6 µM; 0.61% of 370,000 active; AID 743287;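 active = lowest replicate activation of at least 40%, so every replicate reaches that level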;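 also: 0% = median of neutral control wells and 100% = median of IBMX positive control wells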
Yeast UUG start – alters start codon recognition fidelity in yeast; AID 602363; activity score, % at 18.7 µM; 350,000 tested, 0.13% active; S. cerevisiae UUG-firefly luciferase reporter, luminescence/redox ratio;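 active means replicate mean at a twofold rise or more, about +100% in these data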;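 further: firefly luciferase made from a UUG start codon reports start codon fidelity; reporter light over untreated wells divided by growth signal over untreated wells; some hits fall short of that in this replicate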
SR-BI DiI inh – inhibitors of mouse SR-BI mediated HDL lipid uptake | inhibition, % at 12.5 µM | ldlA[mSR-BI] CHO cells, DiI-HDL uptake fluorescence, 3 h | AID 488896 | 0.96% of 320,000 active | Q61009;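 active = mean replicate inhibition of at least 70% and a set share of replicates each scoring 70 or more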;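 also: 0% = median of neutral control wells and 100% = median of positive control wells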
Active calls of the source: *; nt = no result.

entry | SR-BI uptake up | INS-1E GSIS act | Yeast UUG start | SR-BI DiI inh | SMILES
1 | -73 | 0 | -6 | 73* | O=C(Cc1ccc(NC(=O)C2CCCN(C(=O)C3CCCC3)C2)cc1)Nc1cccc(C(=O)N2CCCCC2)c1 (stereo unspecified)
2 | -54 | -10 | -5 | 54 | O=C(Cc1ccc(NC(=O)C2CCCN(C(=O)C3CCC3)C2)cc1)Nc1cccc(C(=O)N2CCCC2)c1 (stereo unspecified)
3 | nt | 79* | nt | nt | O=C(Cc1ccc(NC(=O)C2CCCN(C(=O)c3ccccc3)C2)cc1)Nc1cccc(C(=O)N2CCCCC2)c1 (stereo unspecified)
4 | -92 | -21 | 2 | 92* | CN(Cc1ccccc1)C(=O)c1cccc(NC(=O)Cc2ccc(NC(=O)C3CCN(C(=O)C4CCC4)CC3)cc2)c1
5 | -16 | 0 | 5 | 16 | CN(Cc1ccccc1)C(=O)c1cccc(NC(=O)Cc2cccc(NC(=O)C3CCN(C(=O)C4CC4)CC3)c2)c1
6 | nt | -4 | -36 | nt | C[C@H]1CN([C@@H](C)CO)C(=O)c2cccc(NC(=O)Nc3ccc4c(c3)OCO4)c2O[C@H]1CN(C)S(=O)(=O)c1ccc(Cl)cc1
7 | nt | 1 | nt | nt | COc1ccc2c3c([nH]c2c1)[C@@H](CO)N(C(=O)CN(C)C)CC31CN(C(=O)c2ccncc2)C1
8 | -76 | 22 | -1 | 76* | CCOc1ccc(CCNC(=O)CCCn2c(=O)c3cccn3c3cccnc32)cc1OCC
9 | -77 | 12 | -5 | 77* | CSc1cccc(NC(=O)CCn2c(=O)c3cccn3c3cccnc32)c1
10 | -44 | 0 | -21 | 44 | COc1ccc(CCNC(=O)CCCn2c(=O)c3cccn3c3cccnc32)c(OC)c1OC
11 | -71 | 2 | -19 | 71* | COc1ccc(CCNC(=O)CCCn2c(=O)c3cccn3c3cccnc32)c(OC)c1
12 | nt | 58* | -6 | nt | COc1ccc(CNC(=O)CCn2c(=O)oc3ccccc32)c(OC)c1
13 | nt | 9 | nt | nt | O=C(c1ccncc1)N1CC(=O)N2[C@H](C1)[C@@H](c1ccc(/C=C/c3ccccc3)cc1)[C@@H]2CO
14 | nt | -8 | -14 | nt | COc1ccc(-c2cn(CC[C@@H]3CC[C@@H](NS(=O)(=O)c4ccccc4C)[C@@H](CO)O3)nn2)cc1
15 | nt | 6 | -6 | nt | COc1c(/C=N/NC(=O)[C@H]2C[C@@H]2c2ccccc2)c(CCN(C)C(C)=O)cc2c1OCO2
16 | 145* | 36 | -2 | -145 | COc1c(/C=N/NC(=O)c2ccncc2)c(CCN(C)C(C)=O)cc2c1OCO2
17 | -71 | nt | -16 | 71* | O=C1CC(SC(=Nc2ccccc2)Nc2ccccc2)C(=O)N1c1ccc(Cl)cc1 (stereo unspecified)
18 | -55 | -5 | -4 | 55 | CN=C(Nc1ccccc1)SC1CC(=O)N(c2cccc(OC)c2)C1=O (stereo unspecified)
19 | -78 | nt | -13 | 78* | O=C1CC(SC(=Nc2ccccc2)Nc2ccccc2)C(=O)N1c1cccc(Cl)c1 (stereo unspecified)
20 | nt | -36 | -5 | nt | C[C@H]1CN([C@@H](C)CO)C(=O)c2cc(/C=C/c3ccccc3)cnc2O[C@@H]1CN(C)C(=O)c1ccccc1
21 | 4 | -6 | -4 | -4 | CCc1nnc(NC(=O)C(CC)c2ccccc2)s1 (stereo unspecified)
22 | nt | 103* | -6 | nt | CCc1nnc(NC(=O)C(c2ccccc2)c2ccccc2)s1
23 | -83 | -3 | -25 | 83* | CCc1cccc(C)c1NC(=S)NCC1CCN(c2ccc(OC)cc2)C1 (stereo unspecified)
24 | -88 | 12 | nt | 88* | CC1=CC(=C(C#N)c2nc3ccccc3s2)C=C(C)N1CC1CCCO1 (stereo unspecified)
25 | -74 | -23 | nt | 74* | C/C(=N\Nc1ccc([N+](=O)[O-])cc1)c1ccc(O)cc1

Part of the list above, reduced to INS-1E GSIS act:
nr | mol | INS-1E GSIS act
7 | COc1ccc2c3c([nH]c2c1)[C@@H](CO)N(C(=O)CN(C)C)CC31CN(C(=O)c2ccncc2)C1 | 1
8 | CCOc1ccc(CCNC(=O)CCCn2c(=O)c3cccn3c3cccnc32)cc1OCC | 22
9 | CSc1cccc(NC(=O)CCn2c(=O)c3cccn3c3cccnc32)c1 | 12
10 | COc1ccc(CCNC(=O)CCCn2c(=O)c3cccn3c3cccnc32)c(OC)c1OC | 0
11 | COc1ccc(CCNC(=O)CCCn2c(=O)c3cccn3c3cccnc32)c(OC)c1 | 2
12 | COc1ccc(CNC(=O)CCn2c(=O)oc3ccccc32)c(OC)c1 | 58*

Further entries follow.
entry | SR-BI uptake up | INS-1E GSIS act | Yeast UUG start | SR-BI DiI inh | SMILES
26 | -76 | 11 | 9 | 76* | CC/C(=N\Nc1ccc([N+](=O)[O-])cc1[N+](=O)[O-])c1ccc(O)cc1
27 | nt | 3 | nt | nt | CCC(=NNc1ccc([N+](=O)[O-])cc1[N+](=O)[O-])c1ccccc1
28 | 9 | 750* | nt | -9 | Cc1ccc(CC2(OCCN(C)C)CCC(C(C)(C)C)CC2)cc1 (stereo unspecified)
29 | 2 | 2 | nt | -2 | CN(C)CCOC1(Cc2ccc(F)cc2)CCC(C(C)(C)C)CC1 (stereo unspecified)
30 | -127 | 0 | -7 | 127* | CCOC(=O)c1c(NC(=O)C(=O)N/N=C/c2ccccc2O)sc2c1CCCCC2
31 | -72 | nt | -12 | 72* | CCOC(=O)c1c(NC(=O)c2ccn(CC)n2)sc2c1CCCC2
32 | -76 | 12 | -13 | 76* | CCOC(=O)c1cc(C(=O)Nc2sc3c(c2C#N)CCCC3)nn1C
33 | 9 | -5 | -12 | -9 | Cc1cc(C(=O)Nc2sc3c(c2C#N)CCCC3)no1
34 | -6 | 60* | nt | 6 | CCOC(=O)c1c(-n2cnnn2)sc2c1CCCC2
35 | -4 | nt | -10 | 4 | CCOC(=O)c1c(N)sc2c1CCCC2
36 | nt | -4 | nt | nt | COc1ccc2c3c(n(C)c2c1)[C@@H](CO)N(C(=O)Nc1ccc(F)cc1)CC31CCN(CC2CCOCC2)CC1
37 | -98 | -4 | nt | 98* | O=C(N/N=C/c1cccc([N+](=O)[O-])c1O)c1cccs1
38 | -76 | -6 | -15 | 76* | O=C(N/N=C/c1ccccc1OCc1ccccc1)c1cccs1
39 | nt | 20 | -1 | nt | O=C(N/N=C/c1ccc([N+](=O)[O-])cc1)c1cccs1
40 | -43 | nt | -17 | 43 | COc1cc(/C=N/NC(=O)c2cccs2)ccc1OCc1ccccc1
41 | nt | -4 | 18 | nt | C[C@@H]1CN([C@@H](C)CO)S(=O)(=O)c2ccc(C3=CCCC3)cc2O[C@@H]1CN(C)C(=O)c1ccccc1
42 | nt | -5 | nt | nt | CCC(=O)Nc1ccc2c(c1)OC[C@@H](C)N(C(=O)COC)C[C@H](C)[C@H](OC)CN(C)C2=O
43 | nt | 9 | 7 | nt | CCNC(=O)Nc1ccc2c(c1)C(=O)N(C)[C@@H]1CC[C@H](CC(=O)NCC3CC3)O[C@@H]1CO2
44 | nt | 0 | -1 | nt | C[C@H](CO)N1C[C@H](C)[C@@H](CN(C)S(=O)(=O)c2ccccc2)OCCCC[C@H](C)Oc2ccc(NS(=O)(=O)c3cccs3)cc2C1=O
45 | -57 | 1 | nt | 57 | Cc1nnn(-c2nonc2N)c1C(=O)N/N=C/c1ccccc1O
46 | -85 | 10 | -4 | 85* | Cc1ccc(-c2c(C(=O)N/N=C/c3c[nH]c4ccccc34)nnn2-c2nonc2N)cc1
47 | -56 | 86* | nt | 56 | Cc1nnn(-c2nonc2N)c1C(=O)N/N=C/c1cccc2ccccc12
48 | -85 | 10 | -1 | 85* | Cc1ccc(-c2c(C(=O)N/N=C/c3sccc3C)nnn2-c2nonc2N)cc1
49 | nt | 19 | nt | nt | CC(=O)Nc1ccc2c(c1)C(=O)N(C)C[C@H](C)[C@@H](CN(C)C(C)=O)O2
50 | nt | 402* | nt | nt | CN1CCN(C2Cc3ccccc3Sc3cc(C(F)(F)F)ccc32)CC1 (stereo unspecified)
51 | nt | 7 | -17 | nt | CO[C@H]1CN(C)C(=O)c2cc(NC(=O)c3cc(C)on3)ccc2OC[C@@H](C)N(C)C[C@H]1C
52 | -88 | nt | nt | 88* | COC(=O)c1cc2c(n1S(=O)(=O)c1ccc(C)cc1)C(=O)C(=O)c1[nH]cc(C(=O)OCc3ccccc3)c1-2

2 of the compounds above, in transposed form.
33. Cc1cc(C(=O)Nc2sc3c(c2C#N)CCCC3)no1
34. CCOC(=O)c1c(-n2cnnn2)sc2c1CCCC2
assay / entry,33,34
SR-BI uptake up,9,-6
INS-1E GSIS act,-5,60*
Yeast UUG start,-12,nt
SR-BI DiI inh,-9,6
